# Measurements: patent US4005220A, “Hemostatic compositions comprising salts of substituted hydroquinone sulfonic acid” (Laboratorios del Dr. Esteve, S.A., priority 1973, dated 1977)
# System: mice
# Assay: Acute toxicity in mice, LD50 (method of Reed and Muench)
# Assay type: in vivo
# Protocol: 1. Acute toxicity in mice
# Albino mice of 18 to 25 g. The LD50 was determined in accordance with the method of Reed and Muench.
# The acute toxicity in mice was determined in accordance with the method of REED and MUENCH, in a modified form (Reed L. J. and Muench H., Am. J. Hyg., 27, 493, 1938). The effect on the average bleeding time was determined by the Roskam technique modified by Laporte (Laporte J., Chemotherapia, 3, 62, 1961).
substance,measurement,setting,value
Diethylamine (tertiary butyl)-p-dihydroxybenzenesulphonate,LD50,"i.v., mice (summary table)",475 mg/kg
same,LD50,"intravenous, female mice",475.3 mg/kg
same,LD50,"intravenous, male mice",475 mg/kg
same,LD50,"oral, female mice","3,732 mg/kg"
same,LD50,"oral, male mice","2,552 mg/kg"
